Laboratory results published in ChEMBL document CHEMBL1649198, “Efflux unbalance in Pseudomonas aeruginosa isolates from cystic fibrosis patients” (2009).

Legend:
[1] = tested on: Pseudomonas aeruginosa; test: Ratio of MIC for Pseudomonas aeruginosa 2858 to MIC for Pseudomonas aeruginosa PAO1; assay type: functional
[2] = tested on: Pseudomonas aeruginosa; test: Ratio of MIC for Pseudomonas aeruginosa 2933 to MIC for Pseudomonas aeruginosa PAO1; assay type: functional

**Q.** With GENTAMICIN as the sequence, how does the fold change (FC) [1] read?
**A.** The fold change (FC) was greater than 4.

**Q.** And the fold change (FC) [2]?
**A.** The fold change (FC) was greater than 4.
